Values joined by “and” are separate entries in the source; they are usually repeats but may differ in a detail not shown here. Identical values can stand only once. This is a selection; strong and weak results do not stand in their true shares. Inconclusive results are not listed. Active and inactive are the calls of the source. The call rests on the fitted dose curve; in most records, active means well fitted inhibition curve with a large enough effect; inconclusive means small, poorly fitted or top-dose-only effect, or another doubt; inactive means no such curve, though single readings can be large or run the other way.

The assay concerns the target 4'-phosphopantetheinyl transferase ffp (Bacillus subtilis) (UniProt Q9F4F7). Description: qHTS Assay for Inhibitors of Bacillus subtilis Sfp phosphopantetheinyl transferase (PPTase).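 Further: the enzyme is Sfp with the accession as filed and its product quenches rhodamine fluorescence; 0% = enzyme reaction without inhibitor and -100% = no enzyme wells.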 To be noted: Biochemical Sfp PPTase activity. On the technique in general: qHTS replaces the single test concentration by a dilution series.
For the compound `COc1cc(I)ccc1[As](=O)(O)O`, the largest response in the series, negative = inhibition was inactive: -13.1%.

As for `Cc1c2c(nc3ccccc13)SC(C(Cl)Cl)C2` (centres undefined), the largest response in the series, negative = inhibition is inactive: -12.8%.

`Cc1cc(=O)[nH]c(N[N+](=O)[O-])n1`: the largest response in the series, negative = inhibition was inactive: 5.12%.

For the compound `CCN(CC)CCCOC(=O)C(O)(c1ccccc1)c1ccccc1`, the largest response in the series, negative = inhibition was inactive: 10.4%.

As to `O=C(OC1CN2CCC1CC2)C12CC3CC(CC(C3)C1)C2` (centres undefined), the largest response in the series, negative = inhibition was inactive: -11%.

As for `COc1ccc(N/C(=N/P(=O)(N2CCOCC2)N2CCOCC2)N2CCOCC2)cc1`, the largest response in the series, negative = inhibition was inactive: 24.9%.

With `Cc1ccc(OP(=O)(Nc2ccc([N+](=O)[O-])cn2)Oc2ccc(C)cc2)cc1`, the largest response in the series, negative = inhibition is inactive: 7.32%.

Regarding `Cc1ccc2nc3c(c(C)c2c1)CC(C(Cl)Cl)S3` (centres undefined), the largest response in the series, negative = inhibition is inactive: -5.37%.

For `C[As](=O)(O)c1cccc(C(=O)O)c1`, the largest response in the series, negative = inhibition was inactive: -9.03%.

`O=[As](O)(c1ccc(O)cc1)c1ccccc1O`: the largest response in the series, negative = inhibition is inactive: 24.1%.

Consider `CC(C)NC(=O)NP(=O)(Oc1ccccc1)Oc1ccccc1`, for which the largest response in the series, negative = inhibition was inactive: 2.71%.

On to `CCN(CC)C(=S)SC(NC=O)C(Cl)(Cl)Cl` (centres undefined), for which the largest response in the series, negative = inhibition was inactive: 4.06%.

Consider `ClCCSc1nnc(-c2cccnc2)o1`, for which the largest response in the series, negative = inhibition was inactive: -1.64%.

Take `CC(C)c1ccc(OP(=O)(Nc2ccccn2)Oc2ccccc2F)cc1` (centres undefined): the largest response in the series, negative = inhibition is inactive: 22.5%.

With `CCCCOc1ccc(C(=O)NCC2(N3CCCCC3)CCCCC2)cc1OC`, the largest response in the series, negative = inhibition is inactive: 18.3%.

On to `O=P(Nc1ccccn1)(c1cccc2ccccc12)c1cccc2ccccc12`, for which the largest response in the series, negative = inhibition was inactive: -10.5%.

As for `O=[N+]([O-])c1ccc(Nc2ccc(Oc3ccc([N+](=O)[O-])cc3[N+](=O)[O-])cc2)c([N+](=O)[O-])c1`, the largest response in the series, negative = inhibition is inactive: 10%.

As to `CCOC(=O)Nc1cccc([As](=O)(O)O)c1`, the largest response in the series, negative = inhibition was inactive: 3.49%.

Turning to `O=C(Nc1ccncc1[N+](=O)[O-])c1ccc([N+](=O)[O-])cc1[N+](=O)[O-]`, the largest response in the series, negative = inhibition was inactive: 6.05%.

As for `O=C(COc1ccccc1)OC1CN2CCC1CC2` (centres undefined), the largest response in the series, negative = inhibition is inactive: 13.2%.

On to `COP1(=S)c2c(C)nn(CCC#N)c2N=C(c2ccc(F)cc2)N1C` (centres undefined), for which the largest response in the series, negative = inhibition is inactive: -4.55%.

Take `CCC(C)N(CC(C)C)C(=S)SC(NC(C)=O)C(Cl)(Cl)Cl` (centres undefined): the largest response in the series, negative = inhibition was inactive: -16.8%.

For `O=C(OC1CN2CCC1CC2)c1cccc([N+](=O)[O-])c1` (centres undefined), the largest response in the series, negative = inhibition is inactive: -1.95%.

`CCOC(=O)c1ccc(NC(=O)C(C)(CCl)SC)cc1` (centres undefined): the largest response in the series, negative = inhibition is inactive: 2.21%.

Take `CCOP(=O)(NC(=NC(C)c1ccccc1)NC(C)c1ccccc1)OCC` (centres undefined): the largest response in the series, negative = inhibition was inactive: 10.7%.

Turning to `O=P1(Nc2ccccn2)COc2ccccc2OC1`, the largest response in the series, negative = inhibition was inactive: -1.96%.

As for `CCC1=CC2Cc3nc4ccc(Cl)cc4c(N)c3C(C1)C2` (centres undefined), the largest response in the series, negative = inhibition is inactive: 5.38%.

For the compound `CCOP(=O)(Nc1ccc(C)cn1)OCC`, the largest response in the series, negative = inhibition is inactive: 14%.

Consider `CN(CCCl)Cc1cc(Cl)c(NC2=NCCN2)c(Cl)c1`, for which the largest response in the series, negative = inhibition was inactive: -19.5%.

For the compound `CC(C)/C=N\N=C(\N)N[N+](=O)[O-]`, the largest response in the series, negative = inhibition was inactive: 9.01%.

Take `CN(C(=O)Cc1ccc(Cl)c(Cl)c1)[C@@H]1CCCC[C@H]1N1CCCC1`: the largest response in the series, negative = inhibition was inactive: 13.2% and inactive: 4.48%.

As for `O=[As](O)(c1ccccc1Br)c1ccccc1Br`, the largest response in the series, negative = inhibition was inactive: 14.8%.

Consider `CN(C)C1(CNC(=O)c2ccc(S(C)(=O)=O)cc2)CCCCC1`, for which the largest response in the series, negative = inhibition is inactive: 6.75%.

`O=C(/C=C/c1ccccc1)OC1CN2CCC1CC2` (centres undefined): the largest response in the series, negative = inhibition was inactive: -9.74%.

In the case of `CC1CCC(C(C)C)C(OP(=O)(Nc2ccccn2)c2ccccc2)C1` (centres undefined), the largest response in the series, negative = inhibition was inactive: 9.51%.

Regarding `Cc1ccc(C(=O)OC2CN3CCC2CC3)cc1` (centres undefined), the largest response in the series, negative = inhibition is inactive: 14.6%.

Consider `Cc1nn(-c2ccccc2)c2c1P(=O)(N1CCOCC1)N(C)C(c1ccccc1)=N2` (centres undefined), for which the largest response in the series, negative = inhibition is inactive: 19.2%.

As for `COc1cc(C2NCCC3(OCCO3)C2(C)C)cc(OC)c1OC.O=[N+]([O-])c1cc([N+](=O)[O-])c(O)c([N+](=O)[O-])c1` (centres undefined), the largest response in the series, negative = inhibition was inactive: 5.85%.

As for `Nc1cccc([As](=O)(O)c2ccccc2)c1`, the largest response in the series, negative = inhibition was inactive: 4.2%.

With `Cc1ccc(OCC(=O)OC2CN3CCC2CC3)cc1` (centres undefined), the largest response in the series, negative = inhibition is inactive: 3.43%.

Regarding `O=[As](O)(c1cccs1)c1cccs1`, the largest response in the series, negative = inhibition was inactive: 5.01%.

In the case of `O=P1(Nc2ccc(Br)cn2)COc2ccccc2OC1`, the largest response in the series, negative = inhibition is inactive: 10.8%.

On to `CN1CCCCC1COC(=O)C1(O)c2ccccc2CCc2ccccc21` (centres undefined), for which the largest response in the series, negative = inhibition was inactive: 1.64%.

As for `O=P1(Nc2ncccn2)COc2ccccc2OC1`, the largest response in the series, negative = inhibition was inactive: -3.58%.

As to `Nc1ccccc1[As](=O)(O)c1ccccc1`, the largest response in the series, negative = inhibition is inactive: 27.4%.

As for `O=P(Nc1nccs1)(Oc1ccccc1)Oc1ccccc1`, the largest response in the series, negative = inhibition is inactive: -8.34%.

On to `O=P(Nc1nccs1)(c1ccccc1)c1nc2ccccc2s1` (centres undefined), for which the largest response in the series, negative = inhibition was inactive: -89.1%.

For the compound `CCOP1(=S)c2c(C)nn(CCC#N)c2N=C(c2ccccc2F)N1C` (centres undefined), the largest response in the series, negative = inhibition was inactive: 12.9%.

As for `CN(C(=O)Cc1ccccc1)[C@@H]1CC[C@]2(CCCO2)C[C@H]1N1CCCC1`, the largest response in the series, negative = inhibition is inactive: 4.35%.

The record behind these values is PubChem BioAssay AID1490 (National Center for Advancing Translational Sciences (NCATS), 2009).
